The target in the test is PARP2 (Homo sapiens (Human), UniProt Q9UGN5). The settings on record: data not shown.

Protein sequences, listed by entry. Tags and fused reporters are not part of them. Lines headed by an entry give the natural chain unless they say otherwise; changes in a name come on top.
UniProt Q9UGN5: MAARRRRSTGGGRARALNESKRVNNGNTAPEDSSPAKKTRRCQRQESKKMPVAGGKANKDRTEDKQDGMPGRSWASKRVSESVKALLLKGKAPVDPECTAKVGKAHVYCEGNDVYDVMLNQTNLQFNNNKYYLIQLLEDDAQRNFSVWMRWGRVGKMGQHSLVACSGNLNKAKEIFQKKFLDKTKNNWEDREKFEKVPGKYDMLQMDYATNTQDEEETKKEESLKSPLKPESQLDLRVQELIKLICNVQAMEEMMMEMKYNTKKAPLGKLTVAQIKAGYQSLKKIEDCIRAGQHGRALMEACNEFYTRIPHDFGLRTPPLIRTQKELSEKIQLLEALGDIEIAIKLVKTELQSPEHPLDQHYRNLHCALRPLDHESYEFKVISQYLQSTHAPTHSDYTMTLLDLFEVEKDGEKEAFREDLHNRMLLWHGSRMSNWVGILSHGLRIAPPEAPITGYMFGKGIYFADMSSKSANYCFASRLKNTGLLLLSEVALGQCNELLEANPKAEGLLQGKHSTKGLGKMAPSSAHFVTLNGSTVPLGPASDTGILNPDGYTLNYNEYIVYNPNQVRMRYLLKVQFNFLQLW

Regarding `CNC(=O)c1ccc(N2CCN(Cc3ccc4nc(C)c(=O)[nH]c4c3F)CC2)c(F)n1` [Example 20, 6-fluoro-5-[4-[(5-fluoro-2-methyl-3-oxo-4H-quinoxalin-6-yl)methyl]piperazin-1-yl]-N-methyl-pyridine-2-carboxamide], the PARP2 trapping result was “sparing PARP2”.

(Values after patent publication US20250082630A1, “METHODS OF TREATING BRAIN TUMOURS AND NEUROBLASTOMAS” (AstraZeneca AB, priority 2021, published 2025).)
